Laboratory results published in ChEMBL document CHEMBL1136034, “Selective urokinase-type plasminogen activator (uPA) inhibitors. Part 1: 2-Pyridinylguanidines” (Bioorg Med Chem Lett, 2002).

Biological target: Urokinase-type plasminogen activator (Homo sapiens, UniProt P00749)
Assay: In vitro inhibition of HWMT human urokinase Plasminogen activator.

**Q.** Which Ki does the source give for NC(N)=Nc1ncc(Cl)cc1Br here?
**A.** 4.83 µM

**Q.** Which Ki does the source give for N=C(N)Nc1ccc(Cl)cc1 here?
**A.** 6.7 µM
